# Source: US20250353898A1, “SERPIN PEPTIDE DERIVATIVES AND METHODS OF USING THE SAME” (priority 2022, published 2025)
# Test system: NFκB reporter cells or IMG microglial cells
# Experiment: Cytotoxicity assay (CellTiter-Glo Luminescent Cell Viability Assay)
# Conditions: up to 12.5 μg/ml, 24 hours, NFκB reporter cells and IMG microglial cells, FIG. 11
substance,measurement,value
Ac- RRRKFT[Nal]]LD (cyclic) [Peptide A3-7],cytotoxic effects,no cytotoxic effects
